ChEMBL document CHEMBL1142487, “Design, synthesis, and structure-activity relationship of novel opioid kappa-agonists” (Bioorg Med Chem, 2008)

Chains of the proteins cited; added tags and fusions are not shown. Lines headed by an entry give the natural chain unless they say otherwise; changes in a name come on top.
UniProt P41144: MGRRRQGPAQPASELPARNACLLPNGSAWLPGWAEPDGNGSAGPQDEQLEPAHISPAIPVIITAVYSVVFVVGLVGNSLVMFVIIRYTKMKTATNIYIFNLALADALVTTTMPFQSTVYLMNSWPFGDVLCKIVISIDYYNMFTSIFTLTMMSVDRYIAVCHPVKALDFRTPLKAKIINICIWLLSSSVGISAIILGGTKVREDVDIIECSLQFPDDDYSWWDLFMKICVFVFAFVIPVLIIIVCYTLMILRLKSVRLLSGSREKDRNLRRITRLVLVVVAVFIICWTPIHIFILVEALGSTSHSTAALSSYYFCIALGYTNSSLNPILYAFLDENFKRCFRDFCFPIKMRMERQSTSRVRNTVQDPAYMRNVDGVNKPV

How the values were obtained:
[1] = molecular target: Kappa-type opioid receptor (Cavia porcellus, UniProt P41144); experiment: Agonist activity at kappa opioid receptor in guinea pig ileum assessed as inhibition of electric stimulation-induced contraction
[2] = system: Mus musculus; experiment: Antinociceptive activity in po dosed mouse by tail flick test; assay type: functional

CN(C(=O)Cc1ccc(Cl)c(Cl)c1)C1CCCCC1N1CCCC1 (configuration not stated)
IC50 [1]: 1.12 nM
ED50 [2]: 5.18 mg/kg
